Experiment: Solubility test in water and FaSSIF
Assay type: physicochemical
Conditions: 37° C., up to 24 hours

Row | Molecule | Solubility (Water) [µg/mL] | Solubility (FaSSIF (pH 6.5)) [µg/mL]
1 | Br.CC(C)(O)C1CCC(C)(C2C(O)CC3(C)C4CC(OC(=O)CNC(=O)C(N)CS)C5C(C)(C)C(F)(F)CCC56CC46CCC23C)O1 [Compound 2-32, (R)-1-((2-(((2aR,3R,4S,5aS,5bS,7S,7aR,11aR,12aS)-9,9-difluoro-4-hydroxy-3-((2S,5S)-5-(2-hydroxypropan-2-yl)-2-methyltetrahydrofuran-2-yl)-2a,5a,8,8-tetramethyltetradecahydro-1H,12H-cyclopenta[a]cyclopropa[e]phenanthren-7-yl)oxy)-2-oxoethyl)amino)-3-mercapto-1-oxopropan-2-aminium bromide] | 1310 | –
2 | 2-(((2aR,3R,4S,5aS,5bS,7S,7aR,11aR,12aS)-9,9-difluoro-4-hydroxy-3-((2S,5S)-5-(2-hydroxypropan-2-yl)-2-methyltetrahydrofuran-2-yl)-2a,5a,8,8-tetramethyltetradecahydro-1H,12H-cyclopenta[a]cyclopropa[e]phenanthren-7-yl)oxy)-N-methyl-2-oxoethan-1-aminium Chloride [Compound 2-6] | 890 | 1690
3 | 1-(2-(((2aR,3R,4S,5aS,5bS,7S,7aR,11aR,12aS)-9,9-difluoro-4-hydroxy-3-((2S,5S)-5-(2-hydroxypropan-2-yl)-2-methyltetrahydrofuran-2-yl)-2a,5a,8,8-tetramethyltetradecahydro-1H,12H-cyclopenta[a]cyclopropa[e]phenanthren-7-yl)oxy)-2-oxoethyl)guanidinium Bromide [Compound 2-5] | 1310 | 2410
4 | 2-(2-(((2aR,3R,4S,5aS,5bS,7S,7aR,11aR,12aS)-9,9-difluoro-4-hydroxy-3-((2S,5S)-5-(2-hydroxypropan-2-yl)-2-methyltetrahydrofuran-2-yl)-2a,5a,8,8-tetramethyltetradecahydro-1H,12H-cyclopenta[a]cyclopropa[e]phenanthren-7-yl)oxy)-2-oxoethoxy)ethan-1-aminium Chloride [Compound 2-7] | 790 | 1230
5 | (S)-6-((2-(((2aR,3R,4S,5aS,5bS,7S,7aR,11aR,12aS)-9,9-difluoro-4-hydroxy-3-((2S,5S)-5-(2-hydroxypropan-2-yl)-2-methyltetrahydrofuran-2-yl)-2a,5a,8,8-tetramethyl tetradecahydro-1H,12H-cyclopenta[a]cyclopropa[e]phenanthren-7-yl)oxy)-2-oxoethyl)amino)-6-oxohexane-1,5-diaminium Bromide [Compound 2-30] | 1900 | 5950
6 | (R)-2-(2-(((2aR,3R,4S,5aS,5bS,7S,7aR,11aR,12aS)-9,9-difluoro-4-hydroxy-3-((2S,5S)-5-(2-hydroxypropan-2-yl)-2-methyltetrahydrofuran-2-yl)-2a,5a,8,8-tetramethyltetradecahydro-1H,12H-cyclopenta[a]cyclopropa[e]phenanthren-7-yl)oxy)-2-oxoethyl)pyrrolidin-1-ium Chloride [Compound 2-4] | 1220 | 2500
7 | 3-(((2aR,3R,4S,5aS,5bS,7S,7aR,11aR,12aS)-9,9-difluoro-4-hydroxy-3-((2S,5S)-5-(2-hydroxypropan-2-yl)-2-methyltetrahydrofuran-2-yl)-2a,5a,8,8-tetramethyltetradecahydro-1H,12H-cyclopenta[a]cyclopropa[e]phenanthren-7-yl)oxy)-3-oxopropan-1-aminium Chloride [Compound 2-1] | 1130 | 2180
8 | (S)-1-(((2aR,3R,4S,5aS,5bS,7S,7aR,11aR,12aS)-9,9-difluoro-4-hydroxy-3-((2S,5S)-5-(2-hydroxypropan-2-yl)-2-methyltetrahydrofuran-2-yl)-2a,5a,8,8-tetramethyltetradecahydro-1H,12H-cyclopenta[a]cyclopropa[e]phenanthren-7-yl)oxy)-1-oxopropan-2-aminium Chloride [Compound 2-17] | 880 | 2390
